Molecular target: muskelin CTLH-CRA domain (205–735 Δ248–625) (rat, UniProt Q99PV3 205-735, Δ248–625)
Experiment: ITC

B1: RanBP10 CTLH-CRA domain Q519G (domain or fragment)
chain: GPEEQASIKNRQKIQKLVLEGRVGEAIETTQRFYPGLLEHNPNLLFMLKCRQFVEMVNGTDSEVRSLSSGGNQAATERIILFGRELGALSEQLGREYGKNLAHTEMLQDAFSLLAYSDPWSCPVGHQLDPIQREPVCAALNSAILESQ
Question: B1 was tested. Which Kd did it give?
Answer: Its Kd is 8.49 nM.

— article PMC13061415 (2026)
